Biological target: CDK19 (Homo sapiens (Human), UniProt Q9BWU1)
Assay: DiscoverX Kd assay
Conditions: average from duplicate measurements

Protein sequences, listed by entry. Tags and fused reporters are not part of them. Lines headed by an entry give the natural chain unless they say otherwise; changes in a name come on top.
UniProt Q9BWU1: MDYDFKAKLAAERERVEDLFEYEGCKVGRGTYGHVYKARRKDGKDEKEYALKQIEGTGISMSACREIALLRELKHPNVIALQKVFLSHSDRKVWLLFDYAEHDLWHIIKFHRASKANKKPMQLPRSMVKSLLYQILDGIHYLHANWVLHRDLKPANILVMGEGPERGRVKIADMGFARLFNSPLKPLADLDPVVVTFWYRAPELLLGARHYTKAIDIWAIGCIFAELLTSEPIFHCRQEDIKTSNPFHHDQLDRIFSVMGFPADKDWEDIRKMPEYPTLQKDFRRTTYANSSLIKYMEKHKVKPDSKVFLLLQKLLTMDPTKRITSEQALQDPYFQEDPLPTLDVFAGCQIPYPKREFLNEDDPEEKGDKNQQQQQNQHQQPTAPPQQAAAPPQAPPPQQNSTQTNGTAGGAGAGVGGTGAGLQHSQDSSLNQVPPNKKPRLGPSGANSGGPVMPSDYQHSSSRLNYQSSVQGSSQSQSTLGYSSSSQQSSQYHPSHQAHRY

CN1CCN(C(=O)c2ccc3cc(CCNc4ncnc5ccc(C#N)cc45)ccc3c2)CC1 [Senexin B, reference compound]
Kd: 23 nM
